Measured values from ChEMBL document CHEMBL1145821, “Dihydrofolate reductase mutant with exceptional resistance to methotrexate but not to trimetrexate” (J Med Chem, 2003).

Assays:
Dihydrofolate reductase [1] = target: T1, Dihydrofolate reductase (Mus musculus, UniProt P00375); assay: Inhibitory constant for murine Wild-type dihydrofolate reductase (DHFR)
T1 sequence (P00375 whole entry): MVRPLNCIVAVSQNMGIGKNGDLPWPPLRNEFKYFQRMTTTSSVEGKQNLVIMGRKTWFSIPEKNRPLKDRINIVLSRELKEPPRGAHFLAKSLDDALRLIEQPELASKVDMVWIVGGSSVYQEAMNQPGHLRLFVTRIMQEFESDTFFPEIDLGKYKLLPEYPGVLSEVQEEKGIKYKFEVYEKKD

Dihydrofolate reductase [2] = target: T1, Dihydrofolate reductase; assay: Inhibitory constant for F31A/F34A murine dihydrofolate reductase (DHFR)

Ki (Dihydrofolate reductase [1]): 0.042 nM
Ki (Dihydrofolate reductase [2]): 25.9 nM
SMILES: Nc1nc(N)c2nc(CNc3ccc(C(=O)NC(CCCNC(=O)c4ccccc4C(=O)O)C(=O)O)cc3)cnc2n1 (configuration not stated)
